Patent US20170269061A1, “METHOD FOR ASSESSING SENSITIVITY OF A TARGET DRUG IN VITRO AND A BIOMARKER USED THEREOF” (Tunghai University, priority 2016, published 2017)

Test system: BT-474 cells
Settings: BT-474 transfected with GFP-caveolin-1; T-DM1 72 hours
Procedure: BT-474 cells were grown on plates in normal growth medium without antibiotics, and Lipofectamine 2000 transfection reagent (Invitrogen, ThermoFisher, Waltham, Mass., USA) was used to induce GFP-tagged caveolin-1 (Addgene, Cambridge, Mass., USA) overexpression. Caveolin-1siRNA (Dharmacon, GE health care, Lafayette, Colo., USA) was used in the knockdown experiment in SKBR-3 cells.

trastuzumab emtansine [T-DM1]
T-DM1 cytotoxicity on overexpression of CAV-1: increased T-DM1 cytotoxicity
